Tested on: S180 sarcoma
Design: species or system Kunming mice
Settings: mouse, in vivo, iv

| Compound | anti-tumor efficacy |
| --- | --- |
| C=C1CCC2C(C)(CO)C(O)CCC2(C)C1CC(NC12CN3CN(CN(C3)C1)C2)C1=CCOC1=O (stereo not drawn) [Example 57, 12-((1s,3s,5s)-1,3,5-triazaadamantan-7-ylamino)-14-deoxyandrographolide] | statistically significant |
| CN1CCN(c2ccc(/C=C3C=C(/C=C/C4C5(CCC6[C@]4(C)CC[C@@H](O)[C@@]6(C)CO)CO5)C(=O)O\3)cc2)CC1 (stereo partly drawn) [Example 71, 11,12-dedihydro-14-deoxy-(E)-15-(4-(4-methylpiperazin-1-yl)benzylidene)-8,17-epoxyandrographolide] | statistically significant |
| C=C1C(NC(C)C(=O)NC2=NCC=N2)CC2[C@](C)(CC[C@@H](O)[C@@]2(C)CO)C1/C=C/C1=CC(=C\c2ccc(N(C)C)cc2)/OC1=O (stereo partly drawn) [Example 188] | statistically significant |
